How the values were obtained:
[1] = target: recombinant wild type human p21^H-ras protein (human) (UniProt P01112)

Ratio of [^3 H]Farnesyl Incorporated into Peptide/CVIM (ratio to CVIM) (N-CholylCVFM): 0.85
Ratio of [^3 H]Farnesyl Incorporated into Peptide/CVIM (ratio to CVIM) (CVWM): 0
Ratio of [^3 H]Farnesyl Incorporated into Peptide/CVIM (ratio to CVIM) (N-AcPCVFM): 1.4
Ratio of [^3 H]Farnesyl Incorporated into Peptide/CVIM (ratio to CVIM) (N-AcKCVFM): 2.8
Ratio of [^3 H]Farnesyl Incorporated into Peptide/CVIM (ratio to CVIM) (N-AcSCVFM): 2
Ratio of [^3 H]Farnesyl Incorporated into Peptide/CVIM (ratio to CVIM) (N-AcCVFM): 1.1
Ratio of [^3 H]Farnesyl Incorporated into Peptide/CVIM (ratio to CVIM) (N-AcCVIM): 1.8
Ratio of [^3 H]Farnesyl Incorporated into Peptide/CVIM (ratio to CVIM) (N-AcCVWM): 1.2
Ratio of [^3 H]Farnesyl Incorporated into Peptide/CVIM (ratio to CVIM) (N-AcGCVFM): 1.9
Ratio of [^3 H]Farnesyl Incorporated into Peptide/CVIM (ratio to CVIM) (CCVFM): 1.5
Ratio of [^3 H]Farnesyl Incorporated into Peptide/CVIM (ratio to CVIM) (N-AcMCVFM): 2.2
Ratio of [^3 H]Farnesyl Incorporated into Peptide/CVIM (ratio to CVIM) (KCVFM): 0.77
Ratio of [^3 H]Farnesyl Incorporated into Peptide/CVIM (ratio to CVIM) (N-AcDCVFM): 1.3
Ratio of [^3 H]Farnesyl Incorporated into Peptide/CVIM (ratio to CVIM) (N-AcECVFM): 1.4
Ratio of [^3 H]Farnesyl Incorporated into Peptide/CVIM (ratio to CVIM) (N-AcCCVFM): 1.2
Ratio of [^3 H]Farnesyl Incorporated into Peptide/CVIM (ratio to CVIM) (CVIM): 1
Ratio of [^3 H]Farnesyl Incorporated into Peptide/CVIM (ratio to CVIM) (N-Octanoyl-CVFM): 2.1
Ratio of [^3 H]Farnesyl Incorporated into Peptide/CVIM (ratio to CVIM) (CVFM): 0
Ratio of [^3 H]Farnesyl Incorporated into Peptide/CVIM (ratio to CVIM) (N-AcHCVFM): 0.96
transfer of [3H]farnesyl from [3H]FPP to p21^H-ras; half-maximal substrate concentration [1]: 5 µM
Substance: rat brain protein farnesyltransferase (enzyme)

— patent US6083917
